# The list shows a part of the results, in another mix than the full data. Some salts and complexes are drawn in separate pieces, as the source files them; their charges need not balance. Active and inactive are the calls of the source. Calls follow the shape of the dose curve; as a rule, active = well fitted inhibition curve with a large enough effect; inconclusive = small, poorly fitted or top-dose-only effect; inactive = no such curve, though single readings can be large or run the other way.
# Chains of the proteins cited; added tags and fusions are not shown.
# UniProt P39748, whole entry: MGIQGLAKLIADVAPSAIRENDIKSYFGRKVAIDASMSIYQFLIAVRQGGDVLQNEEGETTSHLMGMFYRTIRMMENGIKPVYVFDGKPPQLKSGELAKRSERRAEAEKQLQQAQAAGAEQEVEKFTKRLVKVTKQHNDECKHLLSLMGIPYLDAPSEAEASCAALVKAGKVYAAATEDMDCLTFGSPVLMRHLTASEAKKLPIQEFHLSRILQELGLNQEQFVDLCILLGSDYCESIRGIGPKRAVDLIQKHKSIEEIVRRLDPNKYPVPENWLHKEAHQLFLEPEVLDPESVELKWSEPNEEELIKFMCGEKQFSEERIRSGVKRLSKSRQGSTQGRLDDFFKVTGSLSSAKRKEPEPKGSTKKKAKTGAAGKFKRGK
# Target: Flap endonuclease 1 (Homo sapiens) (UniProt P39748)
# Test: qHTS Assay for the Inhibitors of Human Flap endonuclease 1 (FEN1). Also: nearly all actives have a fitted effect of over 65% in size.
# Conditions: Recombinant FEN1 flap cleavage, fluorescence, 15 min; at 114 µM (top of the series)
# % is scaled to controls: 0 for no effect and ±100 for the full control effect.
row,Structure (SMILES),"activity change, negative = inhibition"
1,O=C(NCC1(N2CCOCC2)CCCCC1)c1cc(F)c(F)cc1Cl,inactive: 17.8%
2,CN1CCC(Nc2cccc(F)c2)CC1,inactive: 11.2%
3,COc1ccc2c(c1O)-c1c(O)c(OC)cc3c1[C@H](C2)[N+](C)(C)CC3.O=[N+]([O-])c1cc([N+](=O)[O-])c([O-])c([N+](=O)[O-])c1[O-],inactive: -17.5%
4,O=C(NCC1(N2CCCCC2)CCCCC1)c1cncc(Br)c1,inactive: -8.34%
5,CCCCOc1ccccc1C(=O)NCC1(N2CCOCC2)CCCCC1,inactive: -10.6%
6,CCCOc1ccc(C(=O)NCC2(N(C)C)CCCCC2)cc1OC,inactive: 3.01%
7,O=C(NCC1(N2CCCCC2)CCCCC1)c1ccc(OC(F)F)cc1,inactive: 6.38%
8,CSc1ccc(C(=O)NCC2(N3CCOCC3)CCCCC2)cc1,inactive: -1.95%
9,O=C(NCC1(N2CCCCC2)CCCCC1)c1cccc([N+](=O)[O-])c1,inactive: -13.3%
10,CCOc1ccc(C(=O)NCC2(N3CCOCC3)CCCCC2)cc1,inactive: 20.4%
11,CCN1CCC(Nc2ccc(Cl)cc2)CC1,inactive: -7.57%
12,N#CC1(Nc2ccccc2)CCN(CCc2ccccc2)CC1,inactive: 1.33%
13,CCCOc1cccc(C(=O)NCC2(N3CCOCC3)CCCCC2)c1,inactive: -15.7%
14,O=C(NCC1(N2CCCCC2)CCCCC1)c1cccc(C(F)(F)F)c1,inactive: -1.79%
15,O=[N+]([O-])c1cc([N+](=O)[O-])c(NCC2CCS(=O)(=O)C2)c([N+](=O)[O-])c1 (stereo not given),inactive: 4.44%
16,CN1CCN(CCOC(=O)C(O)(c2ccccc2)c2ccccc2)CC1,inactive: 0.716%
17,CC(C)c1ccc(C(=O)NCC2(N3CCOCC3)CCCCC2)cc1,inactive: 5.65%
18,COc1ccc(NC2CCN(C(=O)OC(C)(C)C)CC2)cc1,inactive: -5.53%
19,COc1cc(C(=O)NCC2(N3CCCCC3)CCCCC2)ccc1OC(F)F,inactive: 1.32%
20,O=C(NCC1(N2CCOCC2)CCCCC1)c1cc(=O)[nH]c2ccccc12,inactive: -6.24%
